Measurements as given in paper PMC5248655 (ACS chemical neuroscience, 2015).

Tested on: Sprague–Dawley male rats
Test: Brain efflux index
Conditions: aged rats (24 months) after 26 day treatment; absolute value reached

CCN(C)C(=O)Oc1cccc([C@H](C)N(C)C)c1 [rivastigmine, rivastigmine L-tartrate]
^125I-Aβ40 BEI%: 67%
